# Where “and” joins values, the source holds several entries; their conditions need not be identical. Equal values may be shown once.
# Legend:
# [1] = Percentage uptake in erythrocytes; assay type: in vitro ADME, human; conditions: healthy volunteers, no correction for trapped plasma, mean ± SD
# [2] = healthy volunteers, equation developed for 99mTc-MAG3
# [3] = Sprague-Dawley rats; cited from earlier work
# [4] = Plasma protein binding by ultracentrifugation; assay type: in vitro ADME, human; conditions: healthy volunteers, mean ± SD
# [5] = Percentage injected dose in the urine of healthy volunteers
# [6] = blood pressure, heart rate, temperature, blood cell count, chemistry panel, urine analysis; coinjected with 131I-OIH
# [7] = cited from earlier work
# [8] = Renal imaging and renogram parameters
# [9] = Plasma clearance in healthy volunteers, single-injection two-compartment model; assay type: in vivo, human; conditions: this study
# [10] = cortical (parenchymal) region of interest, left kidney, n = 9
# [11] = cortical (parenchymal) region of interest, right kidney, n = 9
# [12] = whole-kidney region of interest, n = 9, mean (SD)
# [13] = whole-kidney region of interest, relative uptake, n = 9, mean (SD)
substance,measurement,setting,value
^99mTc(CO)3-nitrilotriacetic acid [^99mTc(CO)3(NTA)],red cell uptake,[1],9 ± 6%
same,camera-based clearance,[2],456 ± 130 mL/min/1.73 m^2
same,pharmacokinetics in rats compared with 131I-OIH,[3],essentially identical to those of ^131I ortho-iodohippuran
same,plasma protein binding,[4],43 ± 5%
same,percent injected dose in the urine at 30 min,[5]; 30 min after injection,69 ± 9%
same,percent injected dose in the urine at 180 min (3 h),[5]; 180 min after injection,91 ± 4%
same,toxicity in volunteers,[6],no evidence of any toxicity
same,stability of the complex,[7],stable complex
same,Left cortical TTP,[8]; [10],2.52 ± 0.51 min
same,Left cortical TTP (min),[8]; [10],2.52 (0.51) min
same,Right cortical TTP,[8]; [11],2.60 ± 0.60 min
same,Right cortical TTP (min),[8]; [11],2.6 (0.6) min
same,cortical 20 min/max,"[8]; healthy volunteers, kidney side not specified",0.13
same,Left kidney 20 min/max,"[8]; whole-kidney region of interest, 20 min-to-maximum count ratio, n = 9, mean (SD)",0.15 (0.04)
same,Right kidney 20 min/max,[8]; [12],0.16 (0.04)
same,Right kidney TTP (min),[8]; [12],3.4 (1.9) min
same,Left kidney Uptake %,[8]; [13],49.8 ± 3.4% and 49.8 (3.4) %
same,Right kidney Uptake %,[8]; [13],50.2 (3.4) %
same,Left kidney TTP (min),"[8]; whole-kidney region of interest, time to peak of renogram, n = 9, mean (SD)",3.3 (1.6) min
same,plasma clearance as percentage of the 131I-OIH clearance,[9],100%

# Reference: article PMC2852246 (Journal of nuclear medicine : official publication, Society …, 2010)
